Earlier results on 1 compound are cited in US20010018095A1, “Method of forming a membrant, especially a latex or polymer membrane, including multiple discrete layers” (priority 1987, published 2001).

For the data set the following is noted: candidate solvents for polyurethane and biocide; cited from earlier work.

As to `CN(C)C=O` [Dimethyl formamide (DMF), Dimethyl formamide], the “Hydrogen Bonding” value is listed as “medium”.
